Biological target: Collagen 1 (UniProt P02452)
Experiment: quartz crystal microbalance with dissipation

full-length recombinant human proteoglycan 4 (rhPRG4) (from UniProt Q92954 25-1404) (natural protein)
time constant: 8 s

Reference: article PMC10691279
